# Antibody variant affinities, Ab-14 heavy chain, assay 1

From the AlphaSeq antibody data of Engelhart et al. 2022 (doi:10.1038/s41597-022-01779-4), copy in the FLAb collection.

The target is the same throughout: PDVDLGDISGINAS, from the HR2 region of SARS-CoV-2 spike.

Parent: Ab-14, a human scFv built as VH, a 15-residue (Gly4Ser)3 linker, VL. Only the CDRs of the heavy chain vary.
VH: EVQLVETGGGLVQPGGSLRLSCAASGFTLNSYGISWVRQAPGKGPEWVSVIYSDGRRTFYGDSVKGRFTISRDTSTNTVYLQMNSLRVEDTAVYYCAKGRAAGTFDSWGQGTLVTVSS
VL: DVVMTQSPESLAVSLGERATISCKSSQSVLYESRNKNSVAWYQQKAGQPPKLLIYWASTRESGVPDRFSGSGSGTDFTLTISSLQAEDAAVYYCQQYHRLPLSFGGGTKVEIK

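The parent was found by panning a naive human phage display library on the peptide. The library (AAYL49) carries one to three amino acid substitutions per variant, with no insertions or deletions. In AlphaSeq, yeast of one mating type display the scFv and yeast of the other type display the target. The frequency of each diploid, read from paired DNA barcodes, reflects how well the two displayed proteins bind. Each replicate has its own calibration line, from reference interactions of the BCL2 family. Mating was done three times.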

Positions count from residue 1 of the parent VH; G33C puts C in place of G.
The Kd shown is the geometric mean over detected replicates; a lower Kd is a better binder.
An entry "nd" has no value in the source: the pair was not observed among the diploids in any replicate. This suggests poor binding but is not conclusive.
For reference, the parent read 4.4 nM as the reference entry and 13 µM (one replicate of three) as a member of this library.
Background: pairings of library AAYL49 with three empty control strains gave a value in 15% of cases (median 11 µM, 5th percentile 680 nM). Values in that range, when seen in few replicates, are hard to tell from nonspecific mating.

| changes | Kd | seen in |
|---|---|---|
| G33C+Y60K+K65F | nd | 0 of 3 |
| Y32D+D54T+G99S | 11 µM | 1 of 3 |
| S53D+R56I+T104V | nd | 0 of 3 |
| T28H+S63I+F105K | nd | 0 of 3 |
| F59R+G99L+G103C | nd | 0 of 3 |
| L29A+T58V+D106N | 2.7 µM | 2 of 3 |
| N30A+S35Y+F105A | nd | 0 of 3 |
| D54Q+T58K+V64M | nd | 0 of 3 |
| T28E+D54V+G61T | nd | 0 of 3 |
| S63V+K65S+A101P | 2.7 µM | 3 of 3 |
| R100S+G103W+F105A | 320 µM | 1 of 3 |
| R57S+S63G+T104W | nd | 0 of 3 |
| F27W+D62P | 560 nM | 3 of 3 |
| R56E+V64G+D106H | 14 nM | 3 of 3 |
| Y52H+D106Y | 520 nM | 1 of 3 |
| F27V+S53M+T104M | 3.3 µM | 1 of 3 |
| I34L+G61S+R100I | 19 nM | 3 of 3 |
| N30C+G99C | 280 nM | 1 of 3 |
| G26M+F59C+G61K | 31 µM | 1 of 3 |
| F59H+Y60F+D106C | nd | 0 of 3 |
| S63I+F105Q+D106K | 2.4 µM | 3 of 3 |
| G26L+F59M+S107R | 32 µM | 2 of 3 |
| N30M+G99R | 310 nM | 3 of 3 |
| I34Y+S53T+A101N | 3.4 µM | 1 of 3 |
| L29E+S31M+R57F | nd | 0 of 3 |
| V50Y+V64A+A101I | nd | 0 of 3 |
| Y60M+S63F+R100A | nd | 0 of 3 |
| S53F+G61C | nd | 0 of 3 |
| T58N+T104N+D106S | 59 µM | 3 of 3 |
| I34F+D54E+G99I | nd | 0 of 3 |
| N30C+T58K+F105N | nd | 0 of 3 |
| Y32C+S63D+A102I | nd | 0 of 3 |
| V50K+F59L+T104Y | 4.5 µM | 1 of 3 |
| V50R+V64E+S107N | 66 µM | 2 of 3 |
| N30L+G55C+S63C | 9.0 µM | 1 of 3 |
| V50T+A102C | nd | 0 of 3 |
| I34R+G61L+G103L | 57 µM | 1 of 3 |
| F27I+G55K+T58Q | 4.2 µM | 1 of 3 |
| V50P+V64Y+D106P | nd | 0 of 3 |
| Y32V+S35L+R100H | 7.7 µM | 2 of 3 |
| G61N+K65V+G103T | 140 µM | 2 of 3 |
| G26M+S35L+R56N | 24 µM | 2 of 3 |
| G26H+R56A+F105W | 360 nM | 3 of 3 |
| R57C+D62S+A102G | nd | 0 of 3 |
| G33M+F105I | 42 µM | 2 of 3 |
| Y52F+Y60M+D106I | nd | 0 of 3 |
| I34Y+S35H+D106C | nd | 0 of 3 |
| Y60D+G61C+S63M | nd | 0 of 3 |
| G26A+S31D+F59Q | 11 µM | 3 of 3 |
| T28Y+S35D+Y52L | 7.4 µM | 2 of 3 |
| S53N+R100N+T104K | nd | 0 of 3 |
| I34D+Y52A+G61M | 650 nM | 1 of 3 |
| T28R+F59H+D62Q | 1.4 µM | 2 of 3 |
| F27P+Y32D+V64E | nd | 0 of 3 |
| K65T+F105C | nd | 0 of 3 |
| L29Y+Y52S+S107N | nd | 0 of 3 |
| T28R+D62S+A102C | 4.8 µM | 2 of 3 |
| F27S+S31V+S107T | 190 nM | 2 of 3 |

Repeated from above, the 7 best binders with a signal in all replicates:

| changes | Kd | seen in |
|---|---|---|
| R56E+V64G+D106H | 14 nM | 3 of 3 |
| I34L+G61S+R100I | 19 nM | 3 of 3 |
| N30M+G99R | 310 nM | 3 of 3 |
| G26H+R56A+F105W | 360 nM | 3 of 3 |
| F27W+D62P | 560 nM | 3 of 3 |
| S63I+F105Q+D106K | 2.4 µM | 3 of 3 |
| S63V+K65S+A101P | 2.7 µM | 3 of 3 |